For 1 compound, IC50 results are on record in publication PMC3062473 (ChemMedChem, 2010).

The target in the test is T1, Caspase 3 (Homo sapiens, UniProt P42574).
T1 sequence (P42574 29-175 limits assumed): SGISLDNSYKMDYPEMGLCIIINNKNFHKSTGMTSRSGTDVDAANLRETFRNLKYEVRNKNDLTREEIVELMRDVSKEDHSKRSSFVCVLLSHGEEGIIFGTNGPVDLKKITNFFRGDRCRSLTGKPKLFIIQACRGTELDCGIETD
T1 sequence (P42574 176-277 limits assumed): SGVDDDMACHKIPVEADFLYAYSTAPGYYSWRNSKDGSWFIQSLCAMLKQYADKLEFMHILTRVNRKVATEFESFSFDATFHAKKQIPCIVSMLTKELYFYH
As to the kind of experiment: Reaction Biology caspase panel. Type of test: biochemical.

As a reminder, the IC50 is the concentration needed to halve the response being measured. `CC(=O)N[C@@H](CC(=O)O)C(=O)N[C@@H](CCC(=O)O)C(=O)N[C@H](C(=O)N[C@H](C=O)CC(=O)O)C(C)C` [Ac-DEVD-CHO, reference compound] registered a 50% inhibitory concentration (IC50) of 3.04 nM.
